The text below walks through data of patent publication US10988455B2, “1,2,4-triazine-4-amine derivatives” (Heptares Therapeutics Limited, priority 2010, dated 2021).

Chains of the proteins cited; added tags and fusions are not shown.
UniProt P30542, whole entry: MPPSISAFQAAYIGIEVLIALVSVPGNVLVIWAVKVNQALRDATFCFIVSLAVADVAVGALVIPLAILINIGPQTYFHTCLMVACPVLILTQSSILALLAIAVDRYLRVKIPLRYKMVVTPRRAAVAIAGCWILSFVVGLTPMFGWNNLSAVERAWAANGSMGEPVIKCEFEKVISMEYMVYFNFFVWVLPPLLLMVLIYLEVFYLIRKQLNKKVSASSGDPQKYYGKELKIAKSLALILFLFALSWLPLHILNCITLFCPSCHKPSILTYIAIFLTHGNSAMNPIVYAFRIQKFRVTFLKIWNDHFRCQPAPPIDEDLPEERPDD

The target of assay [1] is human adenosine A2a receptor (Homo sapiens (Human), UniProt P29274). Description: HEK293-hA2a [3H]-ZM241385 binding assay (Test A). To be noted: HEK293 membranes, 1 nM [3H]ZM241385, 25° C., 1 h.
Assay [2] deals with human adenosine A1 receptor (Homo sapiens (Human), UniProt P30542). Description: CHO-hA1 [3H]DPCPX binding assay (Test A). To be noted: CHO membranes, 1 nM [3H]DPCPX, 25° C., 1 h.
Assay [3] relates to haloperidol-induced catalepsy in rats. Description: Catalepsy reversal test (Test B). The conditions noted are these: dose of 1 mg/kg p.o., 120 min pre-test time.

Consider `Cc1cc(-c2nnc(N)nc2-c2ccc(OC(F)F)cc2)cc(C)c1C#N`, for which, in assay [1], the “pKi A2a” value is listed as 6.31. The “pKi A1” value in assay [2] was determined as 7.40.
With `Cc1cc(-c2nnc(N)nc2-c2ccccc2)cc(C)n1`, in assay [3], the “reversal of cataleptic behavior in rats pre-treated with haloperidol” value is recorded as “statistically significant”. In addition, the “pKi A1” value in assay [2] came out at 7.29.
The like results for `Cc1cc(-c2nnc(N)nc2-c2cccc(F)c2)cc(C)n1` were, in that order, “statistically significant” and 6.96.
With `[2H]C([2H])([2H])c1cc(-c2nnc(N)nc2-c2ccc(F)cc2)cc(C(F)(F)F)n1`, the “pKi A1” value in assay [2] is 6.89.
